## Measured affinities in a library of Ab-14 light chain variants

Reference: Li et al. 2023, doi:10.1038/s41467-023-39022-2. File: FLAb, binding data.

Target: peptide PDVDLGDISGINAS, taken from heptad repeat 2 (HR2) of SARS-CoV-2 spike.

Parent: Ab-14, a human scFv built as VH, a (GGGGS)3 linker, VL. Only the CDRs of the light chain vary.
VH: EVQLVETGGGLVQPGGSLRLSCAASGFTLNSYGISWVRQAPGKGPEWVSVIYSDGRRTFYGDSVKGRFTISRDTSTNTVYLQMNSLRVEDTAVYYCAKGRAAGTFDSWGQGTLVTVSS
VL: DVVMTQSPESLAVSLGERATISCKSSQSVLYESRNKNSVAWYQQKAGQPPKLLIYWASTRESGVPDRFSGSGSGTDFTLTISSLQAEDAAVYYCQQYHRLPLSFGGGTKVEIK

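Phage display of a naive human antibody library on the peptide gave the parent. These sequences belong to a second round, designed from the earlier measurements on random variants of the parent. Several design methods are mixed in this list. Affinity was read by AlphaSeq, a pooled yeast mating assay with surface-displayed partners. Pairs that bind mate more often; barcode pairs of the diploids are counted by sequencing. The ratio of observed to expected reads was calibrated, replicate by replicate, on BCL2-family standards whose Kd was known from biolayer interferometry. The assay was run in six technical replicates.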

Sequences are complete VL domains.
Values are log10 of the apparent Kd in nM; lower means stronger binding.
Averages over replicates are reported, and they cover detected replicates only.
"no signal" means that the variant was in the library but no mating with the target was seen in any replicate; the authors take this as a sign of poor binding, and no number exists.
Three control strains display no target. For all light chain designs, 4% of the pairings with them gave a signal, with a median of 2.64 and one signal in twenty below 1.59, so weak values seen in few replicates may be background.
A sequence measured in both rounds can read differently, since the two assays cover different ranges.
The authors' rule: three or more of the six replicates give a measured affinity, fewer mean a poor binder.

VL | mean, log10 nM | detected
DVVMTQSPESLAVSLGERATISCKVSTSQEYEDRNKNSVAWYQQKAGQPPKLLIYHASTREEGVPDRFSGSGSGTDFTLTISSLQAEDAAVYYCQQYHRLPLSFGGGTKVEIK | -0.26 | 6 of 6
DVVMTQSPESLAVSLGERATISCKFSQSVLYESTTLNSVAWYQQKAGQPPKLLIYNASTRESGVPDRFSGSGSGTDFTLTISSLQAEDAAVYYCQQYHRLPLSFGGGTKVEIK | 0.21 | 6 of 6
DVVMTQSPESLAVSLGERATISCKISMLYNFAQTNKNSIAWYQQKAGQPPKLLIYEMTTREAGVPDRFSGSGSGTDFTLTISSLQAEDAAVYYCQHYHRLPLSFGGGTKVEIK | 0.57 | 6 of 6
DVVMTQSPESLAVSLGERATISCHMSMITLGGMRARNSVAWYQQKAGQPPKLLIYQMTTRENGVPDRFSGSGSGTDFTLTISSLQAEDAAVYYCQQYDRLPLSFGGGTKVEIK | 0.72 | 6 of 6
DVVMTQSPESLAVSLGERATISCKLTSITGTEKVRGNNVAWYQQKAGQPPKLLIYEMETREQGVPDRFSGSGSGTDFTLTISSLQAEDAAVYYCQQYNRLPLSFGGGTKVEIK | 0.59 | 6 of 6
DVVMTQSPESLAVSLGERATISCKLSWSDLYESRNCNSVAWYQQKAGQPPKLLIYNASQREVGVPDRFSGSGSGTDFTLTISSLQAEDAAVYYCQQYHRLPLSFGGGTKVEIK | 1.28 | 6 of 6
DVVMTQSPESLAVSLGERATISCKSQQSVLYESRNKNSVAWYQQKAGQPPKLLIYWASTRESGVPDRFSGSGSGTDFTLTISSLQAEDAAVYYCQQMDRLPLSFGGGTKVEIK | no signal | 0 of 6
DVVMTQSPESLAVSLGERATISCKSSQSVLYESPNKDSVAWYQQKAGQPPKLLIYWASERESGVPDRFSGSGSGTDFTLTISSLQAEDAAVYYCQQYHRLPLSFGGGTKVEIK | 2.33 | 4 of 6
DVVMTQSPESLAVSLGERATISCKSSQSYLYESRNKNSVAWYQQKAGQPPKLLIYQASTPESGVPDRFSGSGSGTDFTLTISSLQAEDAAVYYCQQYHRYPLSFGGGTKVEIK | 2.24 | 1 of 6
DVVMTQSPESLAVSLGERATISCKFSQSFLYESRNSNAVAWYQQKAGQPPKLLIYEASTRESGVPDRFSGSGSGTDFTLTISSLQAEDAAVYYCQDYHRLPLSFGGGTKVEIK | 0.89 | 6 of 6
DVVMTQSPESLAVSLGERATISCKSSQSVLYESRNHNSVAWYQQKAGQPPKLLIYHASERETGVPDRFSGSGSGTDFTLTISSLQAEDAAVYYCQQRHHLPLSFGGGTKVEIK | no signal | 0 of 6
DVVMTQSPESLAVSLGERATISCKSMQSVLYESRNKNSVAWYQQKAGQPPKLLIYWASTRESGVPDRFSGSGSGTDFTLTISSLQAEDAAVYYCQQYHRLPLSFGGGTKVEIK | no signal | 0 of 6
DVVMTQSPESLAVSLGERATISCKSDFSEPGESRNKNSVAWYQQKAGQPPKLLIYDASTRESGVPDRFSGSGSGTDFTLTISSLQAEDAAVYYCQQYHRLPLSFGGGTKVEIK | -0.16 | 6 of 6
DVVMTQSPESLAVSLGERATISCKLEQSDLYESRNKNNVAWYQQKAGQPPKLLIYNASTRESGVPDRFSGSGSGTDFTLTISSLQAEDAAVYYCQQYHRLPLSFGGGTKVEIK | 0.52 | 6 of 6
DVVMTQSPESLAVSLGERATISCKLSISMLHESINKHNVAWYQQKAGQPPKLLIYEVRTRESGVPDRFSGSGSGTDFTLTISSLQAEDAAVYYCQQYDRLPLSFGGGTKVEIK | 1.12 | 6 of 6
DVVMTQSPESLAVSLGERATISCKISASVNYEMVNGQSVAWYQQKAGQPPKLLIYQMSTREVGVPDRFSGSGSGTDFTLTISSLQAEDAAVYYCQQYDRLPLSFGGGTKVEIK | 0.46 | 6 of 6
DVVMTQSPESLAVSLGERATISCKLPQSVLYEERNKNSVAWYQQKAGQPPKLLIYNASQRESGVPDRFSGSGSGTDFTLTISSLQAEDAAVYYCQQYHRLPLSFGGGTKVEIK | -0.52 | 6 of 6
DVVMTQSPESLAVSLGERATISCKVSQSVLYESRNKNSVAWYQQKAGQPPKLLIYNASTREVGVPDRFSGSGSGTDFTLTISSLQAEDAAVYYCQQYHRLPLSFGGGTKVEIK | -0.27 | 6 of 6
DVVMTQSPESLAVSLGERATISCKLSQSVLYESRNKNSVAWYQQKAGQPPKLLIYWGSTRESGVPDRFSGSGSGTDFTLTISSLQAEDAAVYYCQQYHRLPLSFGGGTKVEIK | 0.11 | 6 of 6
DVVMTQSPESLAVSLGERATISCKIDISELGGSRNKNSVAWYQQKAGQPPKLLIYNASTREEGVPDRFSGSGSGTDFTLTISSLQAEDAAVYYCQQYHRLPLSFGGGTKVEIK | -0.21 | 6 of 6
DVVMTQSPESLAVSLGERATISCMISMNIWGEYRNRDNVAWYQQKAGQPPKLLIYHASNRENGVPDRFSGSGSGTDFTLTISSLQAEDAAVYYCQCYDRLPLSFGGGTKVEIK | 1.65 | 6 of 6
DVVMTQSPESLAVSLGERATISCKLQQSVLYESRMKNSVAWYQQKAGQPPKLLIYNASTRMSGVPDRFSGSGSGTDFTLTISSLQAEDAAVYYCQQYHRLPLSFGGGTKVEIK | 1.05 | 6 of 6

From the list, the first 2 with no signal in any replicate:

| VL | mean, log10 nM | detected |
|---|---|---|
| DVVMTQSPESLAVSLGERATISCKSQQSVLYESRNKNSVAWYQQKAGQPPKLLIYWASTRESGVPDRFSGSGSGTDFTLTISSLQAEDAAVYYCQQMDRLPLSFGGGTKVEIK | no signal | 0 of 6 |
| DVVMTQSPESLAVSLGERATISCKSSQSVLYESRNHNSVAWYQQKAGQPPKLLIYHASERETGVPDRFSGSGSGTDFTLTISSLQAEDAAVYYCQQRHHLPLSFGGGTKVEIK | no signal | 0 of 6 |